Values of other authors in US9643951B2, “Compound having somatostatin receptor agonistic activity and pharmaceutical use thereof” (ONO PHARMACEUTICAL CO., LTD., priority 2013, dated 2017).

Protein sequences, listed by entry. Tags and fused reporters are not part of them.
UniProt P30874, whole entry, species assumed: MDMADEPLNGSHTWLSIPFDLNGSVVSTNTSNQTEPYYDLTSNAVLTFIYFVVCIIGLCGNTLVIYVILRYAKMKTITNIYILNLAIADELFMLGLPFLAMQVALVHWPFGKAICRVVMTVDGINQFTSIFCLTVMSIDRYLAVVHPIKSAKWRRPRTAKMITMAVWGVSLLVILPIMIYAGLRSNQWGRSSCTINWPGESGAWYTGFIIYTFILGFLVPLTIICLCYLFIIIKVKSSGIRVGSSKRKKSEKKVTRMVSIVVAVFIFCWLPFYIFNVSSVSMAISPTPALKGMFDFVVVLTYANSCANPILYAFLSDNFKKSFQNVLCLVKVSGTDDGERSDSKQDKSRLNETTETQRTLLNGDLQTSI
UniProt P30872, whole entry, species assumed: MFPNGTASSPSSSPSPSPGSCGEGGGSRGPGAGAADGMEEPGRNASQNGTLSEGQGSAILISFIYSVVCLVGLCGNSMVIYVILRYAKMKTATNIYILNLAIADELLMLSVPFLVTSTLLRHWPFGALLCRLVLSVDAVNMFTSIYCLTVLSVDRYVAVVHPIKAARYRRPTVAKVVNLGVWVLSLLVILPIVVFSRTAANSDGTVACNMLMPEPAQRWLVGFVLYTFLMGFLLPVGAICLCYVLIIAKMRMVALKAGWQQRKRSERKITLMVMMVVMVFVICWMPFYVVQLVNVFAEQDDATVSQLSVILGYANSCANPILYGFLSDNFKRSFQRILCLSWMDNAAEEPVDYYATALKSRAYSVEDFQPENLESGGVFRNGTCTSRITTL
UniProt P32745, whole entry, species assumed: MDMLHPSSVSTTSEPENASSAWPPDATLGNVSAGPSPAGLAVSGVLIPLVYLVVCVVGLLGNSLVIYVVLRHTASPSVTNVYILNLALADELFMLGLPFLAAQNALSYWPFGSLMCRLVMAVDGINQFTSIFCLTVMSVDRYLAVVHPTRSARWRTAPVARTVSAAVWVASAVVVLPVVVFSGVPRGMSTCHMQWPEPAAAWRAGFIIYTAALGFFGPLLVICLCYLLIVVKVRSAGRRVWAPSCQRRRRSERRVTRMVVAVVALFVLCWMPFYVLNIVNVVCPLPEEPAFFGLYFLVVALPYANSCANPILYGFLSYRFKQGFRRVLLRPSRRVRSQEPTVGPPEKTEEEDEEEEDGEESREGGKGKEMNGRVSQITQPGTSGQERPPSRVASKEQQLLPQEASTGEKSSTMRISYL
UniProt P35346, whole entry, species assumed: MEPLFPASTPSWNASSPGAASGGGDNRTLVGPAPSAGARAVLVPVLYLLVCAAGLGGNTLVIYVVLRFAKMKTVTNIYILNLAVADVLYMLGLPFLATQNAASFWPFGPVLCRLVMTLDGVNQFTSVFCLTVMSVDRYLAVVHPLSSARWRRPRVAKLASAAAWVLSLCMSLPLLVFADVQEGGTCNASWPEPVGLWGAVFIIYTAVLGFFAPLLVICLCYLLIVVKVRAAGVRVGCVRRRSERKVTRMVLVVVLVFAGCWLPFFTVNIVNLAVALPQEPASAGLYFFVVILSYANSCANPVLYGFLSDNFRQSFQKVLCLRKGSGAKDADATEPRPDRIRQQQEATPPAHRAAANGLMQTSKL
UniProt P31391, whole entry, species assumed: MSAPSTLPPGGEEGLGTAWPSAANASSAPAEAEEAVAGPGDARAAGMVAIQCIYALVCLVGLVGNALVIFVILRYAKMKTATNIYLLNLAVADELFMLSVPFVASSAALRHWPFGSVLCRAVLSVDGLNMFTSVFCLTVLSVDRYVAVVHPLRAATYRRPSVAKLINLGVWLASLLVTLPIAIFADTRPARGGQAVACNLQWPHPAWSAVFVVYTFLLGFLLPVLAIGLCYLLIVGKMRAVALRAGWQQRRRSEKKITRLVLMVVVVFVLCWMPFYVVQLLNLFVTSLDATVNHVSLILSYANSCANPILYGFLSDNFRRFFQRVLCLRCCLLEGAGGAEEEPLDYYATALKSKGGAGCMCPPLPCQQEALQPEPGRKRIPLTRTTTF

Columns and labels:
Details in all cases: reported; cited from earlier work
[1] = target: somatostatin receptor subtype 2 (SSTR2) (Homo sapiens, UniProt P30874)
[2] = target: somatostatin receptor subtype 1 (SSTR1) (Homo sapiens, UniProt P30872)
[3] = target: somatostatin receptor subtype 3 (SSTR3) (Homo sapiens, UniProt P32745)
[4] = target: somatostatin receptor subtype 5 (SSTR5) (Homo sapiens, UniProt P35346)
[5] = target: somatostatin receptor subtype 4 (SSTR4) (Homo sapiens, UniProt P31391)

## octreotide acetate
[1]
  binding affinity to SSTR2: high affinity
[2]
  binding to SSTR1: do not bind
[3]
  binding affinity to SSTR3: moderate affinity
[4]
  binding affinity to SSTR5: moderate affinity
[5]
  binding to SSTR4: do not bind
